Results: patent publication US12594347B2, “Nanoparticulate drug delivery systems” (Duke University, priority 2018, dated 2026)

Details: mouse, in vivo

In the case of “MSA: Mouse serum albumin labeled with Alexa488, administered as a positive control”, the “Apparent distribution volume VD” value is reported as 2.78 ± 0.11 mL/g, the “Area under the curve AUC” value is reported as 157.3 ± 4.3 µM·h and the “Distribution half-life β t1/2” value is reported as 1.21 ± 0.17 h. For the same substance, the “Elimination rate constant kg” value was 0.05 ± 0.00 h⁻¹, the “Plasma clearance CL” value was 0.058 ± 0.002 mL/h/g and the “Plasma to tissue rate constant kpt” value was 0.30 ± 0.05 h⁻¹. The “Tissue to plasma rate constant ktp” value was 0.24 ± 0.04 h⁻¹.
